Assay results as given in PMC6491434 (Scientific Reports, 2019).

Protein sequences, listed by entry. Tags and fused reporters are not part of them.
UniProt P22518, whole entry: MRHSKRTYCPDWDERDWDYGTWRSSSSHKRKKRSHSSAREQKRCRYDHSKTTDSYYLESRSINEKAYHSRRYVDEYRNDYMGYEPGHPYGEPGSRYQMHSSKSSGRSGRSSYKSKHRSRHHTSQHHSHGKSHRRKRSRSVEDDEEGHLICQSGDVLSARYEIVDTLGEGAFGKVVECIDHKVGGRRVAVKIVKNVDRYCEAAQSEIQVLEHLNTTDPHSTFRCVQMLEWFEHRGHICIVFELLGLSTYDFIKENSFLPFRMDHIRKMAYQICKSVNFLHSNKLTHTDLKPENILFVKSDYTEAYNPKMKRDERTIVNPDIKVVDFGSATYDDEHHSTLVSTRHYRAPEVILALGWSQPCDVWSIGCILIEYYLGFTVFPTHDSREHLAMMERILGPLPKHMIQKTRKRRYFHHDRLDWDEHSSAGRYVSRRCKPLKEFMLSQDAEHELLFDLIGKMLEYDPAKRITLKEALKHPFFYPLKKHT
UniProt P50750, whole entry: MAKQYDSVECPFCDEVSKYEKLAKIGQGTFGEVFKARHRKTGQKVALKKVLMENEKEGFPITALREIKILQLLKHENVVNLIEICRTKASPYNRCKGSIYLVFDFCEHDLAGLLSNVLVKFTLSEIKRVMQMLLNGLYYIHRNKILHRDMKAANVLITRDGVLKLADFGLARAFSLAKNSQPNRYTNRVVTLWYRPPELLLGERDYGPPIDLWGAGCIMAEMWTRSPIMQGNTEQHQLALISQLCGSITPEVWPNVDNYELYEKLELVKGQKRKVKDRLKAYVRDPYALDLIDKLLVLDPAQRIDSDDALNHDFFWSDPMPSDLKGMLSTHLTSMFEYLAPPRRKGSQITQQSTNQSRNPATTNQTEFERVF
UniProt P49841, whole entry: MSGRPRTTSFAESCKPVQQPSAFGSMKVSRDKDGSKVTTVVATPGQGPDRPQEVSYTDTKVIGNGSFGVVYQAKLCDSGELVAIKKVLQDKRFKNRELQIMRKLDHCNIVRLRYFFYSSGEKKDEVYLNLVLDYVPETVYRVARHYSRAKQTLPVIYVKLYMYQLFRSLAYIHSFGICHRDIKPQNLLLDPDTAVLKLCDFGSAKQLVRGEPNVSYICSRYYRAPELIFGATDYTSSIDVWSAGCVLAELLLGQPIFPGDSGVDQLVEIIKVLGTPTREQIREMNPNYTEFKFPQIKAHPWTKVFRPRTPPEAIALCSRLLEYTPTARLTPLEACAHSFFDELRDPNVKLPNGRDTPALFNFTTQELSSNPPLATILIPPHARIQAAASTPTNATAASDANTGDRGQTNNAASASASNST
UniProt O60563, whole entry partner: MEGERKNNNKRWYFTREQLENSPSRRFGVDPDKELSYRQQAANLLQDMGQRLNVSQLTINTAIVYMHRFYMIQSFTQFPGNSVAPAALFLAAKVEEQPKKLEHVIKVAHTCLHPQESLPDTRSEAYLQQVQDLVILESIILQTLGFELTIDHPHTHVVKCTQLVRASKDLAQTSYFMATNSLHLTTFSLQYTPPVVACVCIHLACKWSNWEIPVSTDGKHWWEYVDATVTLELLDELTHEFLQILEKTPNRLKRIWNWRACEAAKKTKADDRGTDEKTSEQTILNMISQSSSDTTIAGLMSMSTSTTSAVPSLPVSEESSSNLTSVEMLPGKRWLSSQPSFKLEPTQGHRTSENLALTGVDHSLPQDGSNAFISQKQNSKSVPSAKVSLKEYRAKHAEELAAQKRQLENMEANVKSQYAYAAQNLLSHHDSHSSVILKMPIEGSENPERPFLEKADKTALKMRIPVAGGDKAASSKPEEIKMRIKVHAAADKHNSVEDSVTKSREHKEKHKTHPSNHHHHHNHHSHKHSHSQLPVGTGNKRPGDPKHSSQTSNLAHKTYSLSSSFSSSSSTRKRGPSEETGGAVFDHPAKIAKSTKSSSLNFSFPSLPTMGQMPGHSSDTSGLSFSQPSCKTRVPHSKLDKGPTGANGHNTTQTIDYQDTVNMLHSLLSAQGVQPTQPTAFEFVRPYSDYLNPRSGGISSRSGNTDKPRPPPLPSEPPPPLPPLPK

Legend:
Assay type in all cases: biochemical
CK1 = test: protein kinase catalytic activity assay, CK1; settings: read-out: IC50 towards CK1
CLK1 = CLK1 (Mus musculus, UniProt P22518); test: protein kinase catalytic activity assay, CLK1; settings: read-out: IC50 towards CLK1
CDK9/T = CDK9/T (Homo sapiens, UniProt P50750); test: protein kinase catalytic activity assay, CDK9/cyclin T; settings: read-out: IC50 towards CDK9/T
GSK3 = GSK3 (Homo sapiens, UniProt P49841); test: protein kinase catalytic activity assay, GSK3; settings: read-out: IC50 towards GSK3
CDK2/A = CDK2/A (Homo sapiens, UniProt P24941); test: protein kinase catalytic activity assay, CDK2/cyclin A; settings: read-out: IC50 towards CDK2/A
DYRK1A = DYRK1A (Rattus norvegicus, UniProt Q63470); test: protein kinase catalytic activity assay, DYRK1A; settings: read-out: IC50 towards DYRK1A

`CC[C@H](CO)Nc1nc(NCc2cccc(C(F)(F)F)c2)c2ncn(C(C)C)c2n1` was tested, and the IC50 (CK1) was 470 nM, the IC50 (CLK1) was 1500 nM and the IC50 (CDK9/T) was 433 nM. The IC50 (GSK3) was > 10000 nM, the IC50 (CDK2/A) was 110 nM and the IC50 (DYRK1A) was 2000 nM.
